Laboratory results reported in EP4831180A1, “NOVEL KINASE INHIBITOR” (dated 2026).

The chains behind the UniProt entries cited, without tags or fusion partners. Residues count along the entry.
UniProt Q9UM73, 19-1620 L1196M/G1202R limits assumed: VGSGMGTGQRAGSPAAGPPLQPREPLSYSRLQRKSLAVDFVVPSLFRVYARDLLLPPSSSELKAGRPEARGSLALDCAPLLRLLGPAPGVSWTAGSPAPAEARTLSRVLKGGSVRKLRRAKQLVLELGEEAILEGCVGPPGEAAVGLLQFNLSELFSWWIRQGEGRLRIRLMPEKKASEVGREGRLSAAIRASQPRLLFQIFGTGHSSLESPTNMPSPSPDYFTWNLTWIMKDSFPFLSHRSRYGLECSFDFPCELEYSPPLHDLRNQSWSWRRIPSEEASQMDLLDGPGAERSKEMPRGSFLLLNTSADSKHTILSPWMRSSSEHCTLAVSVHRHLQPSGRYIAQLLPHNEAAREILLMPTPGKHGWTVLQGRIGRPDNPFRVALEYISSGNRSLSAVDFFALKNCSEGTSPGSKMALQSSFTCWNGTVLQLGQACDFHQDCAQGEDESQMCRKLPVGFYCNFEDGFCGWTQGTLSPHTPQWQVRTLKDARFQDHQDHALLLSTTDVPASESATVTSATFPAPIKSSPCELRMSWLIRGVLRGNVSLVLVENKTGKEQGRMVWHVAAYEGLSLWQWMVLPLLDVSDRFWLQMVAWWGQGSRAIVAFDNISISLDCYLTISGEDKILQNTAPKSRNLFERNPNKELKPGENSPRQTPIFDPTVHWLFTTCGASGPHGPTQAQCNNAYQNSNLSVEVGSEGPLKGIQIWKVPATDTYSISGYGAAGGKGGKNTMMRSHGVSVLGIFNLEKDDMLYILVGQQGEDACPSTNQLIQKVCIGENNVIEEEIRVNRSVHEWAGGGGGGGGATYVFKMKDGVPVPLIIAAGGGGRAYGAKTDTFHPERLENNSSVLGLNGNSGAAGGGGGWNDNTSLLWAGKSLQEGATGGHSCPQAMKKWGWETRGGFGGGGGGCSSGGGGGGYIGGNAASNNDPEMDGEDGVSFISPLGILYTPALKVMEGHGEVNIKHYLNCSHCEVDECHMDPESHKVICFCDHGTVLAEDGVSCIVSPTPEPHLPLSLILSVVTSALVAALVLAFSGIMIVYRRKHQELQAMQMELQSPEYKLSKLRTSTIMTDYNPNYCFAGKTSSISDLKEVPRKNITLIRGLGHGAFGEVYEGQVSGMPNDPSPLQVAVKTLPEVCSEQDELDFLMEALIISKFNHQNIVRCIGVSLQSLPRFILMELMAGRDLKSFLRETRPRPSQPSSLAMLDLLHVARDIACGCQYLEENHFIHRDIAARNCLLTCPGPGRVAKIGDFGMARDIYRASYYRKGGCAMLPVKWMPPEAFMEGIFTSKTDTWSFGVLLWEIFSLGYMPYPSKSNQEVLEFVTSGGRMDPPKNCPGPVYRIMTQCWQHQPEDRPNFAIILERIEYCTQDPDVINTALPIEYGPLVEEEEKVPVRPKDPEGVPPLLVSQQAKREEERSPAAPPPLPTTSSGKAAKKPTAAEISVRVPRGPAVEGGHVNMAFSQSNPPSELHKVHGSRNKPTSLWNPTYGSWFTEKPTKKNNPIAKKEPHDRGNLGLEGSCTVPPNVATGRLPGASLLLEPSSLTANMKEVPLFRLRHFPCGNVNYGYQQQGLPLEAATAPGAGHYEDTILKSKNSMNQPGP

What was measured:
[1] = tested on: Baf3 EML4-ALK V1^G1202R/L1196M cells; details: read-out: BaF3 EML4-ALK^G1102R/L1196M, IC50; 3 days incubation, Cell-Titer Glo
His-ALK^G1202R/L1196M = His-ALK^G1202R/L1196M (Homo sapiens, UniProt Q9UM73, G1202R/L1196M); assay: ALK G1202R/L1196M compound mutant kinase inhibitory activity assay (HTRF); details: read-out: ALK^G1202R/L1196M Enzyme, IC50, ATP 4 µM, enzyme 0.5 nM, 1 hour at 23 °C

Compound	IC50 [1]	IC50 (His-ALK^G1202R/L1196M)
CCn1nc(C#Cc2cnccn2)c2c1-c1cnc(N)c(c1)O[C@H](C)c1cc(F)ccc1-c1nn(C)cc1C2	< 10 nM	< 5 nM
CCn1nc(C#Cc2cocn2)c2c1-c1cnc(N)c(c1)O[C@H](C)c1cc(F)ccc1-c1nn(C)cc1C2	< 10 nM	< 5 nM
CCn1nc(C#Cc2cn[nH]c2)c2c1-c1cnc(N)c(c1)O[C@H](C)c1cc(F)ccc1-c1nn(C)cc1C2	< 10 nM	< 5 nM
CCn1nc(C#Cc2cscn2)c2c1-c1cnc(N)c(c1)O[C@H](C)c1cc(F)ccc1-c1nn(C)cc1C2	< 10 nM	< 5 nM
CCn1nc(C#Cc2cnc(CO)cn2)c2c1-c1cnc(N)c(c1)O[C@H](C)c1cc(F)ccc1-c1nn(C)cc1C2	< 10 nM	< 5 nM
CCn1nc(C#Cc2cncc(N)n2)c2c1-c1cnc(N)c(c1)O[C@H](C)c1cc(F)ccc1-c1nn(C)cc1C2	< 10 nM	< 5 nM
CCn1nc(C#CC2CCCN2)c2c1-c1cnc(N)c(c1)O[C@H](C)c1cc(F)ccc1-c1nn(C)cc1C2 (stereo partly drawn)	< 10 nM	< 5 nM
CCn1nc(C#Cc2ccnc(N)c2)c2c1-c1cnc(N)c(c1)O[C@H](C)c1cc(F)ccc1-c1nn(C)cc1C2	< 10 nM	< 5 nM
CCn1nc(C#Cc2nccs2)c2c1-c1cnc(N)c(c1)O[C@H](C)c1cc(F)ccc1-c1nn(C)cc1C2	< 10 nM	< 5 nM
CCOC/C=C/c1nn(CC)c2c1Cc1cn(C)nc1-c1ccc(F)cc1[C@@H](C)Oc1cc-2cnc1N	< 10 nM	< 5 nM
CCn1nc(C#CC(C)(C)NC(=O)OC)c2c1-c1cnc(N)c(c1)O[C@H](C)c1cc(F)ccc1-c1nn(C)cc1C2	< 10 nM	< 5 nM
[2H]C([2H])([2H])n1cc2c(n1)-c1ccc(F)cc1[C@@H](C)Oc1cc(cnc1N)-c1c(c(C#C)nn1CC)C2	< 10 nM	< 5 nM
(19R)-3-ethyl-16-fluoro-10,19-dimethyl-5-((1-methyl-1,2,4-triazol-,3-yl)et hynyl)-20-oxa-3,4,10,11,23-pentaazapentacyclo[19.3. 1.0^2,6.0^8,12.0^13,18]pentacosa-1(24),2(6),4,8 (9),11,13(18),14,16,21(25),22-decaen-22-amine	< 10 nM	< 5 nM
CCn1nc(C#Cc2ccn(C)c(=O)c2)c2c1-c1cnc(N)c(c1)O[C@H](C)c1cc(F)ccc1-c1nn(C)cc1C2	< 10 nM	< 5 nM
CCn1nc(N=S2(=O)CCOCC2)c2c1-c1cnc(N)c(c1)O[C@H](C)c1cc(F)ccc1-c1nn(C)cc1C2	< 10 nM	< 5 nM
CCn1nc(C#CCN(C)C)c2c1-c1cnc(N)c(c1)O[C@H](C)c1cc(F)ccc1-c1nn(C)nc1C2	< 10 nM	< 5 nM
C#Cc1nn(CC2CC2)c2c1Cc1cn(C)nc1-c1ccc(F)cc1[C@@H](C)Oc1cc-2cnc1N	< 10 nM	< 5 nM
CCn1nc(C#Cc2cccnn2)c2c1-c1cnc(N)c(c1)O[C@H](C)c1cc(F)ccc1-c1nn(C)cc1C2	< 10 nM	< 5 nM
CCn1nc(C#CC(=O)N2CC(F)(F)C2)c2c1-c1cnc(N)c(c1)O[C@H](C)c1cc(F)ccc1-c1nn(C)cc1C2	< 10 nM	< 5 nM
C#Cc1nn(CC)c2c1Cc1cc(C)cnc1-c1ccc(F)cc1[C@@H](C)Oc1cc-2cnc1N	< 10 nM	< 5 nM
CCn1nc(C#Cc2cccn(C)c2=O)c2c1-c1cnc(N)c(c1)O[C@H](C)c1cc(F)ccc1-c1nn(C)cc1C2	< 10 nM	< 5 nM
[2H]C([2H])([2H])n1cc2c(n1)-c1ccc(F)cc1[C@@H](C)Oc1cc(cnc1N)-c1c(c(C#C)nn1CC1CC1)C2	< 10 nM	< 5 nM
C#Cc1nn(CC)c2c1Cc1ccc(C)nc1-c1ccc(F)cc1[C@@H](C)Oc1cc-2cnc1N	< 10 nM	< 5 nM
CCn1nc(C#Cc2cncn2C2CC2)c2c1-c1cnc(N)c(c1)O[C@H](C)c1cc(F)ccc1-c1nn(C)cc1C2	< 10 nM	< 5 nM

Compound	IC50 [1]	IC50 (His-ALK^G1202R/L1196M)
(19R)-3-ethyl-16-fluoro-10,19-dimethyl-5-((3-(oxetan-3-yl)imidazol-5-yl) ethynyl)-20-oxa-3,4,10,11,23-pentaazapentacyclo[19.3. 1.0^1,12.0^13,18.0^2,6]pentacosa-1(25),2(6),4, 8(9),11,13(18),14,16,21(22),23-decaen-22-amine	< 10 nM	< 5 nM
CCn1nc(N=S2(=O)CCCC2)c2c1-c1cnc(N)c(c1)O[C@H](C)c1cc(F)ccc1-c1nn(C)cc1C2	< 10 nM	< 5 nM
CCn1nc(C#CCO)c2c1-c1cnc(N)c(c1)O[C@H](C)c1cc(F)ccc1-c1nn(C)nc1C2	< 10 nM	< 5 nM
CCn1nc(C#Cc2cnn(CCO)c2)c2c1-c1cnc(N)c(c1)O[C@H](C)c1cc(F)ccc1-c1nn(C)cc1C2	< 10 nM	< 5 nM
CCn1nc(C#CC2(C)CCOCC2)c2c1-c1cnc(N)c(c1)O[C@H](C)c1cc(F)ccc1-c1nn(C)cc1C2	< 10 nM	< 5 nM
C#Cc1nn(CC)c2c1Cc1sc(C)nc1-c1ccc(F)cc1[C@@H](C)Oc1cc-2cnc1N	< 10 nM	< 5 nM
CCn1nc(C#CCN)c2c1-c1cnc(N)c(c1)O[C@H](C)c1cc(F)ccc1-c1nn(C)nc1C2	< 10 nM	< 5 nM
CCn1nc(C#CC2(O)CCC2)c2c1-c1cnc(N)c(c1)O[C@H](C)c1cc(F)ccc1-c1nn(C)cc1C2	< 10 nM	< 5 nM
C#Cc1nn(CC)c2c1Cc1cc(F)cnc1-c1ccc(F)cc1[C@@H](C)Oc1cc-2cnc1N	< 10 nM	< 5 nM
CCn1nc(N=S(C)(C)=O)c2c1-c1cnc(N)c(c1)O[C@H](C)c1cc(F)ccc1-c1nn(C(F)F)cc1C2		< 5 nM
C#Cc1nn(CC)c2c1Cc1nc(C)sc1-c1ccc(F)cc1[C@@H](C)Oc1cc-2cnc1N		< 5 nM
CCn1nc(C#CC2CCCCO2)c2c1-c1cnc(N)c(c1)O[C@H](C)c1cc(F)ccc1-c1nn(C)cc1C2 (stereo partly drawn)		< 5 nM
CCn1nc(/C=C/COC2COC2)c2c1-c1cnc(N)c(c1)O[C@H](C)c1cc(F)ccc1-c1nn(C)cc1C2		< 5 nM
CCn1nc(C#CC(C)(C)NC(=O)N(C)C)c2c1-c1cnc(N)c(c1)O[C@H](C)c1cc(F)ccc1-c1nn(C)cc1C2	< 10 nM	< 5 nM
CCn1nc(C#CC2(O)COC2)c2c1-c1cnc(N)c(c1)O[C@H](C)c1cc(F)ccc1-c1nn(C)nc1C2		< 5 nM
CCn1nc(C#Cc2cncc(C#N)c2)c2c1-c1cnc(N)c(c1)O[C@H](C)c1cc(F)ccc1-c1nn(C)cc1C2		< 5 nM
CCn1nc(C#Cc2ccc(OC)nc2)c2c1-c1cnc(N)c(c1)O[C@H](C)c1cc(F)ccc1-c1nn(C)cc1C2		< 5 nM
CCn1nc(C#CCOC)c2c1-c1cnc(N)c(c1)O[C@H](C)c1cc(F)ccc1-c1nn(C)cc1C2		< 5 nM
CCn1nc(C#Cc2cccnc2OC)c2c1-c1cnc(N)c(c1)O[C@H](C)c1cc(F)ccc1-c1nn(C)cc1C2		< 5 nM
C#Cc1nn(CC)c2c1Cc1nc(C)oc1-c1ccc(F)cc1[C@@H](C)Oc1cc-2cnc1N		< 5 nM
CCn1nc(C#Cc2ccc(C(F)(F)F)cc2)c2c1-c1cnc(N)c(c1)O[C@H](C)c1cc(F)ccc1-c1nn(C)cc1C2		< 5 nM
CCn1nc(C#CCCCN)c2c1-c1cnc(N)c(c1)O[C@H](C)c1cc(F)ccc1-c1nn(C)cc1C2		< 5 nM
CCn1nc(C#CC(N)=O)c2c1-c1cnc(N)c(c1)O[C@H](C)c1cc(F)ccc1-c1nn(C)nc1C2		< 5 nM
